{"source": "patent USRE37793E1", "about": "“Method and composition for inhibiting bacteria” (Winthrop University Hospital, priority 1995, dated 2002)", "key": {"humans": {"test_system": "humans", "conditions": "cited from earlier work"}, "rats": {"test_system": "rats", "conditions": "cited from earlier work"}, "[1]": {"test_system": "Swiss-Webster female mice", "assay": "Oral toxicity of BisBAL in mice", "conditions": "dose as BAL"}, "[2]": {"test_system": "Swiss-Webster female mice", "assay": "Intraperitoneal toxicity in mice", "conditions": "dose as BAL"}, "bacteria": {"test_system": "bacteria", "assay": "Antibacterial potency (MIC) in general", "assay_type": "cell-based", "conditions": "with few exceptions"}}, "data": [{"smiles": "OCC(S)CS", "note": "(centres unmarked)", "values": [{"measurement": "Threshold toxic intramuscular dose", "setting": "humans", "value": "less than 5 mg/kg"}, {"measurement": "Intramuscular LD50", "setting": "rats", "value": 86.7, "unit": "mg/kg"}, {"measurement": "Oral LD50", "setting": "[1]", "value": 333, "unit": "mg/kg"}, {"measurement": "IP LD50", "setting": "[2]", "value": 60, "unit": "mg/kg"}, {"measurement": "MIC", "setting": "bacteria", "value": "1000 to 10000", "unit": "µM"}]}]}
